Laboratory results from patent publication US20250084067A1, “PYRAZOLE-SUBSTITUTED CYCLOPENTANOL ESTER DERIVATIVE AND USE THEREOF” (CHIA TAI TIANQING PHARMACEUTICAL GROUP CO., LTD., priority 2022, published 2025).

Legend:
CDK2 CycE1 kinase = CDK2 CycE1 kinase (Homo sapiens (Human), UniProt P24941); test: Determination of inhibitory activity against CDK2 CycE1 kinase; assay type: biochemical; settings: read-out: CDK2/CycE1 10 μM ATP (kinase) IC50
CDK2/CycA2 kinase = CDK2/CycA2 kinase (Homo sapiens (Human), UniProt P24941); test: Determination of inhibitory activity against CDK2/CycA2 kinase; assay type: biochemical; settings: read-out: CDK2/CycA2 10 μM ATP (kinase) IC50

| SMILES | IC50 (CDK2 CycE1 kinase) [nM] | IC50 (CDK2/CycA2 kinase) [nM] |
| --- | --- | --- |
| CC(C)NC(=O)O[C@H]1CC[C@@H](c2cc(Nc3ccc4c(c3)CS(=O)(=O)C4)n[nH]2)C1 | < 10 | < 10 |
| CC(C)NC(=O)O[C@@H]1CC[C@H](c2cc(Nc3ccc4c(c3)CS(=O)(=O)C4)n[nH]2)C1 | < 10 | < 10 |
